From patent US5120641A (Daiichi Pure Chemicals Co., Ltd., priority 1989, dated 1992) come the findings set out here.

By UniProt entry, the sequences of proteins in these tests, tags left out.
UniProt P31652, whole entry: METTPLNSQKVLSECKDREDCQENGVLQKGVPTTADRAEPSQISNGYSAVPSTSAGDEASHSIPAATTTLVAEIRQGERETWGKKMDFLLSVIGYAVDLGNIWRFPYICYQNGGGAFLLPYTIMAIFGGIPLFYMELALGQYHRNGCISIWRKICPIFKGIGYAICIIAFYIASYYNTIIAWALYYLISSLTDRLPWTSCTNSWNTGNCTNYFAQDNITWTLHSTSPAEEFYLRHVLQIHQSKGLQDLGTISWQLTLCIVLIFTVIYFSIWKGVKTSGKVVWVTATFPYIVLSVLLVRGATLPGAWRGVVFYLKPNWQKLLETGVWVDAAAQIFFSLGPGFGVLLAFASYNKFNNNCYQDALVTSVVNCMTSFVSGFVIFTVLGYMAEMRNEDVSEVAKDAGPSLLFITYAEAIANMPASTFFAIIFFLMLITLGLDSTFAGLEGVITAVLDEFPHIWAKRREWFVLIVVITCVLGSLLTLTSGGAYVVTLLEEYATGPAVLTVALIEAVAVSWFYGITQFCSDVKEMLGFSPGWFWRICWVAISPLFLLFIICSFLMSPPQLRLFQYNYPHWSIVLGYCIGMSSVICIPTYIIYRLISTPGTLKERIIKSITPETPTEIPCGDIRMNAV

Where two headings read alike, the source gives them in different places.

One may read the Ki as the dissociation constant of the complex between target and ligand, obtained from inhibition or displacement.

The experiment has as its target T1, serotonin uptake sites ([^3 H]6-nitroquipazine binding, rat brain membranes) (Rattus norvegicus, UniProt P31652).
T1 construct: from tissue; host or cells: rat brain minus cerebellum, pons and medulla oblongata; washed membrane homogenate
Kind of experiment: Inhibition of [^3 H]6-nitroquipazine binding by several drugs. How it is done:
Rats were killed by decapitation and the brains (minus cerebellum, pons medulla and oblongata) were rapidly removed. The brain tissue was homogenized in 50 volumes of ice-cold buffer (50 mM Tris-HCl, 120 mM NaCl, 5 mM KCl, pH 7.4) with a Kinematica Polytron homogenizer at setting 5 for 30 seconds. The homogenate was centrifuged at 48,000×g for 10 minutes. The resulting pellet was resuspended in 50 volumes of ice-cold buffer and recentrifuged. The final pellet was resuspended in the same 50 volumes of buffer.
Aliquots of membrane suspension were incubated with [^3 H]6-nitroquipazine (30-1,200 pM) at 22° C. for 2 hours for the equilibrium saturation. After the addition of 4 ml of ice-cold buffer the homogenates were rapidly filtered through Whatman GF/C filters pretreated with 0.05% polyethleneimine. The filters were washed with ice-cold buffer (3×5 ml). The radioactivity trapped by the filters was determined by a liquid scintillation counter.
Ten different concentrations of the drugs were used for each determination. Aliquots of membrane suspension were incubated with [^3 H]6-nitroquipazine at 22° C. for 2 hours. The specific binding of [^3 H]6-nitroquipazine was determined as described in Example 2.
Drug IC50 values were defined by means of the iterative non-linear least-squares method.

With `CNCCC=C1c2ccccc2CCc2ccccc21` [Nortriptyline], the Ki (read-out: Ki) was 89.5 nM. For the compound `Fc1ccc([C@@H]2CCNC[C@H]2COc2ccc3c(c2)OCO3)cc1` [Paroxetine], the “Ki” value is, setting by setting: ([…] [^3 H]6-nitroquipazine, 22° C., 2 hours) “low nanomolar ranges”; (read-out: Ki) 0.171 nM.
